We go through two molecules from ChEMBL document CHEMBL4043177 (Bioorg Med Chem, 2017).

The chains behind the UniProt entries cited, without tags or fusion partners.
UniProt O43613, whole entry: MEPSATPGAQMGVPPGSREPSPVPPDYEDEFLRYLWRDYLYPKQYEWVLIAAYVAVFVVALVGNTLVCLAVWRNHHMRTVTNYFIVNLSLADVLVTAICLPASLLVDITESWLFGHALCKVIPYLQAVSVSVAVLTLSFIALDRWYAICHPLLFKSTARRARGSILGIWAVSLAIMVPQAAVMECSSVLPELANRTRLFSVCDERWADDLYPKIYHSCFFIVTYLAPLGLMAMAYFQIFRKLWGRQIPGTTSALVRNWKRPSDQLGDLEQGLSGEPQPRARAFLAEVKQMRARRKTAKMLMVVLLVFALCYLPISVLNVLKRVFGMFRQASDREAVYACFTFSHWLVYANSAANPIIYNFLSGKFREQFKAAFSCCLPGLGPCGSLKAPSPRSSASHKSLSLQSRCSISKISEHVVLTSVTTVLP
UniProt O43614, whole entry: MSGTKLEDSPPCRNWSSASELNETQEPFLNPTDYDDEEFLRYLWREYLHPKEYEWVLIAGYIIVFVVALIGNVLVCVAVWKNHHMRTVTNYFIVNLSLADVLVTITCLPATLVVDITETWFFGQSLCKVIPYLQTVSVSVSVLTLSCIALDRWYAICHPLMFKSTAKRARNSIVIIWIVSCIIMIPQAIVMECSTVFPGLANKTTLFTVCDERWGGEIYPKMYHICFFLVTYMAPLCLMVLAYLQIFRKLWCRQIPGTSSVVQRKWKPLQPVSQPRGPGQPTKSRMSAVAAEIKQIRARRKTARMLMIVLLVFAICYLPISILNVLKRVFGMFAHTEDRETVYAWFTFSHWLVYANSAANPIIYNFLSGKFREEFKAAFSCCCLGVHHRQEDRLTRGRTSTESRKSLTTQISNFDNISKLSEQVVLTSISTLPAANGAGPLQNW

For assay [1], the target named is Orexin/Hypocretin receptor type 1 (Homo sapiens, UniProt O43613). Briefly: Antagonist activity at human OX1R expressed in CHO cells assessed as reduction in [Ala6,12]orexin-A-induced intracellular Ca2+ mobilization incubated for 30 mins by Fluo-4AM dye based fluorescence assay. Format: functional, cell-based.
For a further assay, the species on record is Homo sapiens. Description: Selectivity index, ratio of IC50 for human OX2R expressed in CHO cells to IC50 for human OX1R expressed in CHO cells. The format is cell-based.
The next assay concerns the target Orexin receptor type 2 (Homo sapiens, UniProt O43614). Description: Antagonist activity at human OX2R expressed in CHO cells assessed as reduction in [Ala6,12]orexin-A-induced intracellular Ca2+ mobilization incubated for 30 mins by Fluo-4AM dye based fluorescence assay. The format is functional, cell-based. The gist of the method:
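CHO cells stably expressing human OX2R, seeded a day ahead, loaded with 0.15 μM Fluo-4AM (HBSS pH 7.4, 20 mM HEPES, 0.1% BSA, 2.5 mM probenecid) for 1 h at 37 °C. Compound given 30 min at room temperature, then 1 nM final [Ala6,12]orexin-A. Ca2+ fluorescence read; IC50 by nonlinear regression; 2–4 runs, duplicate or triplicate.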

Turning to `CCN(C(=O)c1cc(F)ccc1-c1ncccn1)[C@@H](C)Cn1nnc(-c2ccc(F)cc2)n1`, the IC50 in assay [1] is 0.00201 µM; at Orexin receptor type 2 it was 0.532 µM. In addition, the Ratio IC50 in the assay filed under Homo sapiens was determined as 265.
Consider `CCN(C(=O)c1nc(C)ccc1-c1ncccn1)[C@@H](C)Cn1nnc(-c2ccc(F)cc2)n1`, for which the IC50 at Orexin receptor type 2 worked out at 1.31 µM.
